As a reminder, the IC50 is the midpoint of a concentration-inhibition curve.

Sequences of proteins named here, by UniProt entry; tags and fusion partners are left off. A change or cut given only in a name is not applied to a line headed by its entry.
UniProt P56524: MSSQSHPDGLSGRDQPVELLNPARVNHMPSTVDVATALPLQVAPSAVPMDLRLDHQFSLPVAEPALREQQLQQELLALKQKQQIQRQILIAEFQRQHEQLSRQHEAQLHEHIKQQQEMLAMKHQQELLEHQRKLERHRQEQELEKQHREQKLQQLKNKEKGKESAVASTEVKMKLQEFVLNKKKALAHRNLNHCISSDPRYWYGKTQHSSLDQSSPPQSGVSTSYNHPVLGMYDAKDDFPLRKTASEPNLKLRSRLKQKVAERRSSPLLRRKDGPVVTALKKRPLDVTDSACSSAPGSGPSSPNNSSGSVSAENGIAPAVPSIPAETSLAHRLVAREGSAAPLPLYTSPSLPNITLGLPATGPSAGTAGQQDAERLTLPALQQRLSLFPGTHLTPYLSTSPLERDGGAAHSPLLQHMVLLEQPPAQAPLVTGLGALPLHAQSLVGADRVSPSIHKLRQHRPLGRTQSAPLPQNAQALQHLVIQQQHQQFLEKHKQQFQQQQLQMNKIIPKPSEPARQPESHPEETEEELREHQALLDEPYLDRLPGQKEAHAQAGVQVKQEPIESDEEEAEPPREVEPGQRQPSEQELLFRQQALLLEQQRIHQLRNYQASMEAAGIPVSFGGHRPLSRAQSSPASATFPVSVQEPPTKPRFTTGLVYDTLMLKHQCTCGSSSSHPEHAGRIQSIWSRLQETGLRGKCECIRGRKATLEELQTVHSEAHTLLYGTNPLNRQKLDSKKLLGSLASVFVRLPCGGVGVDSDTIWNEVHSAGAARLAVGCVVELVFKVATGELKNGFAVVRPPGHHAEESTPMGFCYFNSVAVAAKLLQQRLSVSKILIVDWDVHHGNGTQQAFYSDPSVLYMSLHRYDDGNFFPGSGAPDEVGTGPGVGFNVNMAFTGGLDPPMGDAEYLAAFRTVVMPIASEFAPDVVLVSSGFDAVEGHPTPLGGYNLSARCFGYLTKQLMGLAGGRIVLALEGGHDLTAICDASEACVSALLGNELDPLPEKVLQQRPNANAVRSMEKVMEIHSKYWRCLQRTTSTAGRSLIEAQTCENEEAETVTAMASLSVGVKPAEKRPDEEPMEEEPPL

The experiment concerns the target Histone deacetylase 4 (Homo sapiens, UniProt P56524). The experiment is described as follows: Inhibition of human full length recombinant HDAC4 using p53 (379 to 382 residues) Ac-LGK(TFA)-AMC as substrate preincubated for 5 to 10 mins followed by substrate addition and measured after 2 hrs by fluorescence method.

Molecules are shown by their SMILES.

As for `CN1CCc2c(c3ccccc3n2Cc2ccc(C(=O)NO)cc2)C1` [TUBASTATIN A], the IC50 was determined as 3 µM.

These data come from ChEMBL document CHEMBL4765362, “Thirty Years of HDAC Inhibitors: 2020 Insight and Hindsight” (J Med Chem, 2020).
